Experiments:
[1] = molecular target: GFP-PBD (green fluorescent PCNA-binding domain of Dnmt1); assay: GFP-multiTrap plate binding assay, fluorescence read-out; GFP fusion held on the GFP-multiTrap plate, blocked with 3% milk, incubated with HEK293T cellular extract holding the RFP fusion for 30 min at RT; molar ratio of bound RFP fusion over GFP fusion by plate reader
GFP-Dnmt1ΔPBD = assay: In vitro protein-protein binding assay on GFP-multiTrap; settings: Figure 3A; fluorescent signal intensities
Experimental: (§1) To address the question if such interaction analysis can be performed in a multi-well format we analyzed the interaction of single GFP-fusions with RFP-fusion proteins expressed in mammalian cells. More precisely, we determined quantitative binding ratios between nuclear located proteins involved in DNA-replication (PCNA), [18], DNA-methylation (Dnmt1) as well as in DNA-repair (Xrcc1). As described, we immobilized GFP-fusions on the GFP-multiTrap and incubated them with cell lysate containing RFP-fusion proteins. After binding, we removed unbound material, measured the concentrations of RFP and GFP and calculated the molar binding ratios. Firstly, we determined the binding ratios of the green fluorescent PCNA-binding domain of Dnmt1 (GFP-PBD) to RFP-PCNA and used Dnmt1ΔPBD as a negative control. By measuring the fluorescent signal intensities we detected that RFP-PCNA binds to GFP-PBD in a molar ratio of 1.42±0.31 but not to Dnmt1ΔPBD (Figure 3A).

Protein sequences, listed by entry. Tags and fused reporters are not part of them.
UniProt P12004, whole entry: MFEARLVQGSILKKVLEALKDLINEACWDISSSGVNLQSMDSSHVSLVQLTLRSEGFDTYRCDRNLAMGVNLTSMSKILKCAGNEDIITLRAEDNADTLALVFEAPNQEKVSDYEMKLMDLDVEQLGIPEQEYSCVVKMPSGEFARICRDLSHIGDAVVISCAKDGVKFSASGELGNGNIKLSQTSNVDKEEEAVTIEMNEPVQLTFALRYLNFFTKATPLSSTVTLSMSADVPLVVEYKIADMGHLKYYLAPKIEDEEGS

[2] = test system: GFP-PBD (PCNA-binding domain of Dnmt1); assay: as above
Experimental: as §1

Row | Substance | molar binding ratio (RFP fusion/GFP fusion) [1] | Binding of RFP-fusion to GFP-Dnmt1ΔPBD (GFP-Dnmt1ΔPBD) | Detection in bound fraction of GFP-PBD by immunoblotting ([2]; Figure 3B, SDS-PAGE, anti-RFP antibody 5F8) | Binding to GFP-PBD with varied input amount of RFP-fusion (Figure 3C) ([2]; two independent experiments, plate reader)
1 | RFP-PCNA (from UniProt P12004 1-261) (natural protein) | 1.42 |  |  | 
2 | RFP-PCNA: RFP-fusion of PCNA expressed in HEK293T cells, 56 kDa |  | not | detected in the input and bound fractions | binds
